Values quoted from earlier work, collected in paper PMC4441727.

Chains of the proteins cited; added tags and fusions are not shown.
UniProt Q16665, whole entry, looked up, tested part not stated: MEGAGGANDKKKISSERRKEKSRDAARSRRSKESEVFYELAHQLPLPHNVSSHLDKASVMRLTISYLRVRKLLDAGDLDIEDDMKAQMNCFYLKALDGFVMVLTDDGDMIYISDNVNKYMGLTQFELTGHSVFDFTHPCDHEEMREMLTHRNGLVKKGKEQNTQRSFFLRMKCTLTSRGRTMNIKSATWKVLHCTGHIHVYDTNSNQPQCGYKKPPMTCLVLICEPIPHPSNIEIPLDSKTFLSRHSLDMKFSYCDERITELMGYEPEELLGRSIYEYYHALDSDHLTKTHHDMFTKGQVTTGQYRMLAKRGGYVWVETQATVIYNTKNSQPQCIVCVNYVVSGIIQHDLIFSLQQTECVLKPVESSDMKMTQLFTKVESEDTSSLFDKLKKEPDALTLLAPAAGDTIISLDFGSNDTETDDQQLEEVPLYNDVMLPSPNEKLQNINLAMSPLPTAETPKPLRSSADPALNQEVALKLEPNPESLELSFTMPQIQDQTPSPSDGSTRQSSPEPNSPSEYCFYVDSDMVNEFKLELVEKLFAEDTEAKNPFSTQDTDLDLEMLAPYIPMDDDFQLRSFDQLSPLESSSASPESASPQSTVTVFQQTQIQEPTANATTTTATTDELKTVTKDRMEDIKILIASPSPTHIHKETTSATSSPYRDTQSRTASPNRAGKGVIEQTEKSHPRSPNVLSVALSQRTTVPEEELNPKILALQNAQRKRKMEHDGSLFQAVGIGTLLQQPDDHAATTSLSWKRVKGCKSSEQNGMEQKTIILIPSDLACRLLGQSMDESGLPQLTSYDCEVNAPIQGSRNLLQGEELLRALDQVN
UniProt P40337, whole entry: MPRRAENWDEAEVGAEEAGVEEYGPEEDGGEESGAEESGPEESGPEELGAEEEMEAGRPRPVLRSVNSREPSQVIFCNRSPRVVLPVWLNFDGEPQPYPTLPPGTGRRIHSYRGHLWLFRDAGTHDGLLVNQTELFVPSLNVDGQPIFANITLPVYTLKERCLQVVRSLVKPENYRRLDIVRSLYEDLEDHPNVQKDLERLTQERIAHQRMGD

Target: FAM-labeled HIF-1α peptide (Homo sapiens) (UniProt Q16665)

For “von Hippel Lindau protein (pVHL)-Elongin B-Elongin C complex (from UniProt P40337)”, the Kd is listed as 400 nM.
